# Assay results published in US6713266B1 (Isodiagnostika Inc., priority 1998, dated 2004).
# How the values were obtained:
# [1] = tested on: Mouse polyclonal sera (CSA-DVS-KLH immunogen); assay: Inhibition ELISA, CSA-DVS-HSA coated plate, mouse polyclonal sera; assay type: binding; conditions: Table 3, inhibition ELISA to the CSA-DVS-HSA conjugate
# Procedure: (§1) Inhibition ELISA Protocol:
# (§2) 1. Use Falcon Pro-bind immunoplates.
# (§3) 2. Dilute coating antigen to 1 μg/mL in carbonate-bicarbonate buffer. Add 100 μL per well and incubate overnight at 4° C.
# (§4) 3. On the same day prepare inhibiting antigen tubes. Aliquot antibodies into glass test tubes. Prepare appropriate antigen concentration in ethanol and add to aliquoted antibody at 10 μL ethanol solution/250 μL antibody. Vortex tubes and incubate overnight at 4° C.
# (§5) 4. Shake out wells and wash 3× with 200 μL PBS/0.05% TWEEN™ (polyoxyethylene-sorbitol) (v/v) per well.
# (§6) 5. Add 200 μL blocking buffer per well (PBS/2% BSA (w/v)). Incubate 60 min at room temperature.
# (§7) 7. Transfer contents of inhibition tubes to antigen-coated plate, 100 μL per well. Incubate 60 min at 37° C.
# (§8) 9. […] Add 100 μL per well and incubate at 37° C. for 60 min.
# (§9) 11. […] Add 100 μL per well and incubate in the dark at room temperature. Absorbance can be read at 405 nm at approximately 15-min intervals.
# MoAb AM19-1-7E12-2 = assay: Inhibition ELISA with AM19-1-DVS (1) coated ELISA plates, MoAb; assay type: binding, mouse; conditions: AM19-1-7F12-2
# Procedure: as §1, §2, §3, §4, §5, §6, §7, §8, §9
# MoAb AM19-1-7E12-1 = assay: as above; assay type: binding, mouse; conditions: AM19-1-7E12-1 TCS
# Procedure: as §1, §2, §3, §4, §5, §6, §7, §8, §9
# [2] = tested on: Mouse polyclonal sera (AM19-1-DVS (2) - KLH immunogen); assay: Antigen panel (direct) ELISA, mouse polyclonal sera; assay type: binding; conditions: for Percent reactivity: OD to test antigen/OD to AM19-1-DVS (2) × 100; for OD: coated test antigen
# Procedure: (§10) 1. Use Falcon Pro-bind immunoplate.
# (§11) 2. Dilute coating antigen (Ag) to 1.0 μg/mL in carbonate-bicarbonate buffer. Use glass tubes.
# (§12) 3. Add 100 μL to each well of plate. Store overnight at 4° C.
# as §5
# (§13) 5. Add blocking buffer, 200 μL per well (PBS/2% BSA (w/v)). Incubate for 60 min at 37° C.
# (§14) 7. Add 100 μL per well of test antibody appropriately diluted in PBS/0.1% Tween (v/v). Incubate 60 min at 37° C.
# (§15) 9. Dilute alkaline phosphatase conjugated anti-mouse IgG (Pierce cat #31322) in PBS/0.1% TWEEN™ (polyoxyethylene-sorbitol) (v/v) to 1:2000 concentration. Add 100 μL per well and incubate at 37° C. for 60 min.
# (§16) 10. Wash 3× as in step 4.
# (§17) 11. Prepare enzyme substrate using Sigma #104 alkaline phosphatase substrate tablets (1 mg/mL in 10% diethanolamine (v/v) substrate buffer). Add 100 μL per well and incubate in the dark at room temperature. Absorbance can be read at 405 nm at approximately 15-min intervals.
# (§18) These serum samples were assayed by direct ELISA for antibody titre to specific haptens. Sera showing high antibody reactivity to AM19 were further characterized by antigen panel ELISA (Table 6).
# [3] = tested on: Mouse polyclonal sera (AM19-1-DVS (1) - KLH immunogen); assay: as above; assay type: binding; conditions: for Percent reactivity: OD to test antigen/OD to AM19-1-DVS (1) × 100; for OD: coated test antigen
# Procedure: as §10, §11, §12, §5, §13, §14, §15, §16, §17, §18
# [4] = tested on: Mouse polyclonal sera (AM19-1-DVS (1) - KLH immunogen); assay: Inhibition ELISA, AM19-1-DVS (1) HSA coated plate, mouse polyclonal sera; assay type: binding
# Procedure: as §1, §2, §3, §4, §5, §6, §7, §8, §9
# [5] = tested on: Mouse polyclonal sera (CSA-DVS-KLH immunogen); assay: Antigen panel (direct) ELISA, mouse polyclonal sera; assay type: binding; conditions: for Percent reactivity: OD to test antigen / OD to CSA-DVS-HSA × 100; for OD: coated test antigen
# Procedure: as §10, §11, §12, §5, §13, §14, §15, §16, §17
# These sera had low reactivity to the AM19-9-DVS-HSA conjugate.
# [6] = tested on: Mouse monoclonal antibody AM1-7F5; assay: Antigen panel (direct) ELISA, MoAb tissue culture supernatant; assay type: binding
# Procedure: as §10, §11, §12, §5, §13, §14, §15, §16, §17
# (§19) Spleen cells from mice immunized with the AM1-DVS conjugates have been used to prepare monoclonal antibody secreting hybridoma cells. IgM and IgG anti-CSA MoAbs have been isolated by direct ELISA to CSA-DVS-HSA conjugates. Table 17 illustrates the reactivity of TCS from two of these monoclonal antibody clones (AM1-2E10 and Am1-7F5).
# [7] = tested on: Mouse monoclonal antibody AM1-2E10; assay: as above; assay type: binding
# Procedure: as §10, §11, §12, §5, §13, §14, §15, §16, §17, §19
# MoAb CSA-1H6 = assay: Inhibition ELISA to the CSA-DVS-HSA conjugate, MoAb; assay type: binding, mouse
# Procedure: as §1, §2, §3, §4, §5, §6, §7
# (§20) 9. Dilute alkaline phosphatase conjugated anti-mouse IgG (Pierce cat#31322) in PBS/0.1% TWEEN™ (polyoxyethylene-sorbitol) (v/v) to 1:5000 concentration. Add 100 μL per well and incubate at 37° C. for 60 min.
# as §9
# MoAb CSA-2G9 = assay: as above; assay type: binding, mouse
# Procedure: as §1, §2, §3, §4, §5, §6, §7, §20, §9
# [8] = tested on: Mouse polyclonal sera (AM1-DVS-KLH immunogen); assay: Inhibition ELISA to the CSA-DVS-HSA conjugate, mouse polyclonal sera; assay type: binding
# Procedure: as §1, §2, §3, §4, §5, §6, §7, §8, §9
# [9] = tested on: Rabbit polyclonal sera (AM19-1-DVS-KLH (1) immunogen); assay: Inhibition ELISA, AM19-1-DVS (1) HSA coated plate, rabbit polyclonal sera; assay type: binding
# Procedure: as §1, §2, §3, §4, §5, §6, §7, §8, §9
# The AM19-1-DVS (1) conjugate was also used to immunize rabbits.
# MoAb AM1-2E10 = assay: Inhibition ELISA to the CSA-DVS-HSA conjugate, MoAb; assay type: binding, mouse
# Procedure: as §1, §2, §3, §4, §5, §6, §7, §8, §9
# MoAb AM1-7F5 = assay: as above; assay type: binding, mouse
# Procedure: as §1, §2, §3, §4, §5, §6, §7, §8, §9
substance,measurement,setting,value
"HSA: human serum albumin, protein carrier",Percent Inhibition,[1],24.9%
same,Percent Inhibition of TCS,MoAb AM19-1-7E12-2,1.5%
same,Percent Inhibition of TCS,MoAb AM19-1-7E12-1,3.5%
same,Percent reactivity,[2]; Mouse 3,0%
same,OD,[2]; Mouse 3,0
same,Percent reactivity,[2]; Mouse 4,0%
same,OD,[2]; Mouse 4,0
same,Percent reactivity,[3]; Mouse 1,0%
same,OD,[3]; Mouse 1,0
same,Percent reactivity,[3]; Mouse 2,0%
same,OD,[3]; Mouse 2,0
same,Percent Inhibition,[4]; Mouse 1,0%
same,Percent Inhibition,[4]; Mouse 2,0%
same,Percent reactivity,[5]; Mouse 1,0%
same,OD,[5]; Mouse 1,0
same,Percent reactivity,[5]; Mouse 2,0%
same,OD,[5]; Mouse 2,0
same,Percent reactivity,"[6]; AM1-7F5, OD to test antigen / OD to CSA-DVS-HSA × 100",0%
same,OD,"[6]; AM1-7F5 TCS, coated test antigen",0
same,Percent reactivity,"[7]; AM1-2E10, OD to test antigen / OD to CSA-DVS-HSA × 100",0%
same,OD,"[7]; AM1-2E10 TCS, coated test antigen",0.006
same,Percent Inhibition,"MoAb CSA-1H6; CSA-1H6, Table 24, CSA, CSG and CSA derivative inhibitors",6.0%
same,Percent Inhibition of TCS,"MoAb CSA-1H6; CSA-1H6 TCS, Table 16, CSA-DVS-HSA conjugate",0%
same,Percent Inhibition,"MoAb CSA-2G9; CSA-2G9, Table 24, CSA, CSG and CSA derivative inhibitors",9.4%
same,Percent Inhibition of TCS,"MoAb CSA-2G9; CSA-2G9 TCS, Table 16, CSA-DVS-HSA conjugate",1.5%
same,Percent Inhibition,[8]; Mouse 1,1.8%
same,Percent Inhibition,[8]; Mouse 2,14.9%
same,Percent Inhibition,[9],0%
same,Percent Inhibition,"MoAb AM1-2E10; AM1-2E10, Table 24, CSA, CSG and CSA derivative inhibitors",15.4%
same,Percent Inhibition of TCS,"MoAb AM1-2E10; AM1-2E10 TCS, Table 18, CSA-DVS-HSA coated plate",0%
same,Percent Inhibition,"MoAb AM1-7F5; AM1-7F5, Table 24, CSA, CSG and CSA derivative inhibitors",13.6%
same,Percent Inhibition of TCS,"MoAb AM1-7F5; AM1-7F51, TCS, Table 18, CSA-DVS-HSA coated plate",16.1%
